Laboratory results taken from ChEMBL document CHEMBL1811872, “Tryptophan 2,3-dioxygenase (TDO) inhibitors. 3-(2-(pyridyl)ethenyl)indoles as potential anticancer immunomodulators” (J Med Chem, 2011).

Chains of the proteins cited; added tags and fusions are not shown. Lines headed by an entry give the natural chain unless they say otherwise; changes in a name come on top.
UniProt P48775: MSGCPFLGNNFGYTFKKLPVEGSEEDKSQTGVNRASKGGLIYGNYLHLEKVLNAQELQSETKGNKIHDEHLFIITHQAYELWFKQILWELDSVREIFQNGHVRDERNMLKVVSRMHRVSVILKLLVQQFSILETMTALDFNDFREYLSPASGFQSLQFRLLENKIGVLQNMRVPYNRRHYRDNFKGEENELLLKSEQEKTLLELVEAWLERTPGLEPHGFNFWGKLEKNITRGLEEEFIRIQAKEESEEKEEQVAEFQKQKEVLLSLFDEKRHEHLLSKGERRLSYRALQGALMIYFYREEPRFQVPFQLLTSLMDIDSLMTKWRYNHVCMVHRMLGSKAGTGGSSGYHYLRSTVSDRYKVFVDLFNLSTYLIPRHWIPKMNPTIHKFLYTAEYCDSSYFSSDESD

Molecular target: Tryptophan 2,3-dioxygenase (Homo sapiens, UniProt P48775)
Test: Competitive inhibition of human recombinant TDO expressed in Escherichia coli BL21 using L-tryptophan as substrate by measuring conversion of N-formylkynurenine into kynurenine after 30 mins by Michaelis-Menten steady state analysis

Fc1ccc2c(/C=C/c3cccnc3)c[nH]c2c1
Ki: 880 nM
